As usually defined, the Ki is a measure of affinity in units of concentration, obtained from inhibition or displacement.

Here are results for one compound from ChEMBL document CHEMBL1139362, “Discovery of human macrophage migration inhibitory factor (MIF)-CD74 antagonists via virtual screening” (J Med Chem, 2009).

The target of the assay is T1, Macrophage migration inhibitory factor (Homo sapiens, UniProt P14174).
T1 sequence (P14174 whole entry): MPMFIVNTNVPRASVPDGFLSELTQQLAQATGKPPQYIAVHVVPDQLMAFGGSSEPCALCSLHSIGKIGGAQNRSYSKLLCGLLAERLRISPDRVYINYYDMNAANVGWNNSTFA
Kind of assay: Inhibition of human recombinant MIF tautomerase.

On to `O=C(COC(=O)c1cc2ccc(O)cc2oc1=O)c1ccccc1`, for which the inhibition constant Ki is 1600 nM.
